This is an account of results in patent US20060135612A1, “Method of ameliorating or abrogating the effects of a neurodegenerative disorder, such as amyotrophic lateral sclerosis (ALS), by using a HDAC inhibiting agent” (U.S. Department of Veterans Affairs, priority 2004, published 2006).

For one assay, the system named is bcl-2 mRNA. As to conditions: G93A mice, 400 mg/kg/d for 2 weeks, vs PBS.

As to sodium phenylbutyrate [PBA], the “Survival (Days ± SD)” value in the assay with G93A transgenic ALS mice (G93A mice, 100 mg/kg/d i.p.) is 126.0 ± 4.0 days. Further, the “effect on survival relative to riluzole” value with G93A transgenic ALS mice (transgenic SOD1 mice) is “more than two-fold greater”. For the same substance, the “increase of bcl-2/GAPDH ratio (densitometric analysis)” value with bcl-2 mRNA turned out to be 31.4%.
